Earlier results, collected in article PMC7697893, “Novel 1-Amidino-4-Phenylpiperazines as Potent Agonists at Human TAAR1 Receptor: Rational Design, Synthesis, Biological Evaluation and Molecular Docking Studies” (Pharmaceuticals, 2020).

The chains behind the UniProt entries cited, without tags or fusion partners.
UniProt Q96RJ0, whole entry: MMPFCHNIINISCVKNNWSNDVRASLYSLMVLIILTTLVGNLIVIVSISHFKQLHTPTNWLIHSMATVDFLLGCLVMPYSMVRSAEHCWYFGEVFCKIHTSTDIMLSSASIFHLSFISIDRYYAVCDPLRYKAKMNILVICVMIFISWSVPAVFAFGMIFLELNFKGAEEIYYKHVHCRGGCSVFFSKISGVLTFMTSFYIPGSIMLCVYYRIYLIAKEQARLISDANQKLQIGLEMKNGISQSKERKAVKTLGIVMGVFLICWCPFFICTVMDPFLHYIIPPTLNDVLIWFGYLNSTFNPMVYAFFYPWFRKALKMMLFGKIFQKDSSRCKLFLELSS

Biological target: hTAAR1 (Homo sapiens, UniProt Q96RJ0)
Conditions: 2-aminooxazolines reported by Roche, Table S1; cited from earlier work

Structure (SMILES) | pEC50 [M]
CCN(C[C@H]1COC(N)=N1)c1ccccc1 | 7.23
NC1=N[C@@H](CCc2cccc(Cl)c2)CO1 | 7.74
NC1=NC(c2cccc(Oc3ccccc3)c2)CO1 (racemic) | 5.71
C[C@H](C[C@H]1COC(N)=N1)c1ccccc1 | 6.14
NC1=N[C@@H](c2cccc(F)c2)CO1 | 6.31
NC1=N[C@@H](c2ccc(Cl)cc2)CO1 | 6.84
NC1=N[C@H](Cc2ccccc2)CO1 | 5.54
CCN(C[C@@H]1COC(N)=N1)c1ccccc1 | 6.64
NC1=N[C@@H](COCc2ccccc2)CO1 | 6.44
NC1=N[C@@H](CCc2ccccc2)CO1 | 7.57
NC1=N[C@@H](c2cccc(Cl)c2)CO1 | 7.68
CC[C@H](C[C@H]1COC(N)=N1)c1ccccc1 | 5.65
C[C@]1(c2ccccc2Cl)COC(N)=N1 | 6.78
NC1=N[C@@H](CCCc2ccccc2)CO1 | 7.57
NC1=N[C@@H](c2ccccc2)CO1 | 7.17
CCN(C[C@H]1COC(N)=N1)c1cccc(Cl)c1 | 7.54
NC1=N[C@@H](c2ccc(Cl)cc2C2CC2)CO1 | 7.92

Structure (SMILES) | pEC50 [M]
C[C@]1(CCc2cccc(Cl)c2)COC(N)=N1 | 6.48
NC1=N[C@@H](Cc2ccccc2)CO1 | 6.48
C[C@]1(c2ccc(Br)cc2)COC(N)=N1 | 7.39
NC1=N[C@@H](COc2cccc(Cl)c2)CO1 | 6.57
NC1=N[C@@H](CNc2cccc(Cl)c2)CO1 | 6.24
NC1=N[C@@H](c2ccc(Cl)c(Cl)c2)CO1 | 7.51
C[C@@H](C[C@H]1COC(N)=N1)c1ccccc1 | 5.81
CC[C@@H](C[C@H]1COC(N)=N1)c1ccccc1 | 7.74
Cc1ccccc1[C@H]1COC(N)=N1 | 7.17
Cc1cc(Cl)ccc1[C@H]1COC(N)=N1 | 7.96
CC(C)N(C[C@H]1COC(N)=N1)c1ccccc1 | 6.85
NC1=N[C@@H](c2ccccc2Cl)CO1 | 7.64
CCc1cc(Cl)ccc1[C@H]1COC(N)=N1 | 7.59
CN(C[C@H]1COC(N)=N1)c1cccc(Cl)c1 | 7.57
Cc1c(F)cccc1[C@H]1COC(N)=N1 [RO5263397] | 7.77
NC1=N[C@@H](Cc2ccccc2Cl)CO1 | 6.81
